Results as given in patent US20080015251A1, “Means and method for treating lipotoxicity and other metabolically related phenomena” (Yissum Research Development Co., of The Hebrew University …, priority 2006, published 2008).

Test system: J774.2 macrophages
Assay: Cell viability by propidium iodide exclusion (membrane integrity), flow cytometry
Assay type: cell-based, Murine
Conditions: 0.1% LE; AA 0.5 mM, resv 0.2 mM, querc 0.2 mM, lyc 10 AM, carot 10 AM, toc 0.2 mM, LA 0.25 mM, Se 1 AM (FIG. 8A)
Procedure: Murine J774.2 macrophages were cultured in RPMI medium enriched with 10% fetal calf serum, 1% glutamine, and 1% penicillin-streptomycin. […] Prior to experimental procedures, macrophages were seeded on 6-well plates at a concentration of 50,000 cells/ml.
The physiological range of TG in plasma is up to 1.5 mg/ml. […] Other agents, such as antioxidants or cycloheximide (CH), were added as specified in the relevant figure legends.
Cell membrane integrity was detected as previously described. Briefly, cells were stained with 2 Ag/ml propidium iodide (PI) and measured by flow cytometry, (FACS Calibur, Becton Dickinson, Calif.) at the following fluorescence setting: excitation at 488 nm and emission at 575 nm. Data were collected from 10,000 cells.

Structure (SMILES): [Se] [selenium]
- protection against TG-induced lipotoxicity (rate of cell death): did not have any protective effect or even enhanced the rate of cell death
